{
  "source": "ChEMBL document CHEMBL1154750",
  "about": "(J Med Chem, 2010)",
  "tested_on": "Influenza A virus",
  "assay": "Antiviral activity against Influenza A virus (A/Puerto Rico/8/34(H1N1)) in MDCK cells assessed as reduction in plaque number by plaque reduction assay",
  "data": [
    {"smiles": "CCOC(=O)C1=C[C@@H](OC(CC)CC)[C@H](NC(C)=O)[C@@H](N)C1", "note": "[OSELTAMIVIR]", "values": [
      {"measurement": "IC50", "result": 194, "unit": "nM"}
    ]}
  ]
}
